Earlier results on one molecule are cited in patent US12552793B2, “Purine derivative and medical use thereof” (KANGBAIDA (SICHUAN) BIOTECHNOLOGY CO., LTD., priority 2019, dated 2026).

The target in this data set is DNA-PK (Homo sapiens (Human), UniProt P78527). Particulars: read-out: IC50 (DNA-PK); literature value (Sarkaria et al., 1998); cited from earlier work.

For the molecule `COC[C@H]1OC(=O)c2coc3c2[C@@]1(C)C1=C(C3=O)[C@@H]2CCC(=O)[C@@]2(C)C[C@H]1OC(C)=O` [Wortmannin], the IC50 was around 15 nM.

By IC50 is commonly meant the midpoint of a concentration-inhibition curve.
